Results: ChEMBL document CHEMBL1139881, “A tetrazolyl-substituted subtype-selective AMPA receptor agonist” (J Med Chem, 2007)

The chains behind the UniProt entries cited, without tags or fusion partners. Where a name states a change or a piece, a line headed by the entry shows the natural chain unless it says otherwise.
UniProt P19491: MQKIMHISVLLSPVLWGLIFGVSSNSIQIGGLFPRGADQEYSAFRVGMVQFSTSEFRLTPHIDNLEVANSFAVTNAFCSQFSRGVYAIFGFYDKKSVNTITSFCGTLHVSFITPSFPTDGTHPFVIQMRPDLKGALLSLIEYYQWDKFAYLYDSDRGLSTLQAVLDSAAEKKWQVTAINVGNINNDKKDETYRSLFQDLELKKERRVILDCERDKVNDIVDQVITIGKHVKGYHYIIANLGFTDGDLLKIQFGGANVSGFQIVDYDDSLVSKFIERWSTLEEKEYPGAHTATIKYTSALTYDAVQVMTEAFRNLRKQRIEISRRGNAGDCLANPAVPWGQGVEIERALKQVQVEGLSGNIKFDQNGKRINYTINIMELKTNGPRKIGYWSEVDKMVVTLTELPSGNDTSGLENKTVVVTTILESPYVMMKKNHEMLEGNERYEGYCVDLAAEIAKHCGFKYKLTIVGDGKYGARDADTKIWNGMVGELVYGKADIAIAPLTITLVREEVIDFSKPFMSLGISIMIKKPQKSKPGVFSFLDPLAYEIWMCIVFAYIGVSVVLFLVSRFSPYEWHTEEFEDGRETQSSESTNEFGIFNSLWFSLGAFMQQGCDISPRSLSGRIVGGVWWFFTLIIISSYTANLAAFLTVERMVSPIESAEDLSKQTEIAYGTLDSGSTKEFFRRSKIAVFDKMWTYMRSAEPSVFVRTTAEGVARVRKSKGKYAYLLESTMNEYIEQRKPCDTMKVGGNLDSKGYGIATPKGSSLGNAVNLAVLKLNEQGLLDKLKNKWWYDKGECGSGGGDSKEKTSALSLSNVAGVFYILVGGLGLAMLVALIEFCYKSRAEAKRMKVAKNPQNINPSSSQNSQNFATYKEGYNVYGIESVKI

Molecular target: Glutamate receptor 2 (Rattus norvegicus, UniProt P19491)
Assay: biochemical

NC(Cc1c(O)noc1-c1nnn(Cc2ccccc2)n1)C(=O)O (racemic)
Ki: 750 nM
